Measurements published in ChEMBL document CHEMBL5150037, “Synthesis and in vitro biological evaluation of 3-ethyl-1,5-naphthyridin-2(1H)-one derivatives as potent PARP-1 selective inhibitors and PARP-1 DNA trappers” (Bioorg Med Chem Lett, 2022).

The chains behind the UniProt entries cited, without tags or fusion partners.
UniProt P09874, whole entry: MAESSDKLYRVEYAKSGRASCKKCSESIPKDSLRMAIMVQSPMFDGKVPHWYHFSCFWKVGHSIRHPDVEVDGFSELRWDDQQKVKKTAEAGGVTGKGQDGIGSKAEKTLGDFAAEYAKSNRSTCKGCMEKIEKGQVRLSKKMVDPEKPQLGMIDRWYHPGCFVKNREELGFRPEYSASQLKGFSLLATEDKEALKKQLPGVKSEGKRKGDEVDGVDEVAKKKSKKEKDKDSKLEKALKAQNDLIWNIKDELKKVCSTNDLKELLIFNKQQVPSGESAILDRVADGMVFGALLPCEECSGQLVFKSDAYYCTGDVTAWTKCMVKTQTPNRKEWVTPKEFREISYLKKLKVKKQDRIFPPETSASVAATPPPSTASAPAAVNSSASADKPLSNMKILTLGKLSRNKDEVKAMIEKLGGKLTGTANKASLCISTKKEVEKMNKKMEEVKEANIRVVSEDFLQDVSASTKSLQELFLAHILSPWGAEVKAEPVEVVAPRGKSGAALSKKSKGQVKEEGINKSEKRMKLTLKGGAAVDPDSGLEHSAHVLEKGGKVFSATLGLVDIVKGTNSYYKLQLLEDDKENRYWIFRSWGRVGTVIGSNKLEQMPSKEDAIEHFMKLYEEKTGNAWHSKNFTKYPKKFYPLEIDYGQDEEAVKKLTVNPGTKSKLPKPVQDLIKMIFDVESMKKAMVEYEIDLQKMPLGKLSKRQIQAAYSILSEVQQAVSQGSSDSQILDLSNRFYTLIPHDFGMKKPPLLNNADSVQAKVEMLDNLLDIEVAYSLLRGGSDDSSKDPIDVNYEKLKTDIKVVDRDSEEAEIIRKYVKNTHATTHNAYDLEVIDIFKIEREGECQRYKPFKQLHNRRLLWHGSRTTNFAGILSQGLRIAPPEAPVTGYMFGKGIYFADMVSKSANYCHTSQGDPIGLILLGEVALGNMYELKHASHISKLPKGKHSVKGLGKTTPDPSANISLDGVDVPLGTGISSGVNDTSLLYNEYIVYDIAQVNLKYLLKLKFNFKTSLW

target: Poly [ADP-ribose] polymerase 1 (Homo sapiens, UniProt P09874); assay: Potency index, ratio of AZD5305 IC50 to test compound IC50 for inhibition of PARP-1 (unknown origin) binding to DNA assessed as DNA trapping activity

Ratio IC50 | SMILES
7 | CCc1cc2ncc(CN3CCC(Nc4ccc(C(=O)NC)nc4)C3)cc2[nH]c1=O (centres undefined)
7 | CCc1cc2ncc(CN3CCc4cc(/C=C/C(=O)NC)ccc4C3)cc2[nH]c1=O
7 | CCc1cc2ncc(CN3CC4CN(c5ccc(C(=O)NC)nc5)CC4C3)cc2[nH]c1=O (centres undefined)
7 | CCc1cc2ncc(CN3CC(Nc4ccc(C(=O)NC)nc4)C3)cc2[nH]c1=O
